15 molecules from ChEMBL document CHEMBL1154346 (Bioorg Med Chem Lett, 2009) can be followed below.

Amino acid sequences for entries named in this document (tags omitted).
UniProt P41146, whole entry: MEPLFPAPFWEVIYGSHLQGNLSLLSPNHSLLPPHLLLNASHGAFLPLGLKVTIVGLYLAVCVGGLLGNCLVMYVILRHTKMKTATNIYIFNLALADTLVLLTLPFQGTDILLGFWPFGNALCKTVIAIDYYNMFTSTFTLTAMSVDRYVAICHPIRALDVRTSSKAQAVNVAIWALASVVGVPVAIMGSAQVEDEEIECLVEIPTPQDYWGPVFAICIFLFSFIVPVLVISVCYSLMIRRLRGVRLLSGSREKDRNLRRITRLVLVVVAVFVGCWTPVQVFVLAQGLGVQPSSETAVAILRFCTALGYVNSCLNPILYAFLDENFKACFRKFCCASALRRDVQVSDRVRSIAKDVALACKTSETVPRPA
UniProt P35372, whole entry: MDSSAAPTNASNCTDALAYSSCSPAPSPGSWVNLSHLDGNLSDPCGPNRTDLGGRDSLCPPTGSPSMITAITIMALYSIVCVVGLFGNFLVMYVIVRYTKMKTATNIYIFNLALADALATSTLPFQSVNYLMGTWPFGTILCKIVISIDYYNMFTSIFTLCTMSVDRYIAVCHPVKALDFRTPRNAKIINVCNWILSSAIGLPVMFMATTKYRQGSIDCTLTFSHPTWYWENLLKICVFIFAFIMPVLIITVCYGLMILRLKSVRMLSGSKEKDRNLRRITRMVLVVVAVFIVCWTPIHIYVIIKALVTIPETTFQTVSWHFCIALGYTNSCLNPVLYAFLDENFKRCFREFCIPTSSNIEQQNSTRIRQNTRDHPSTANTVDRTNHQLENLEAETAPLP
UniProt P41144, whole entry: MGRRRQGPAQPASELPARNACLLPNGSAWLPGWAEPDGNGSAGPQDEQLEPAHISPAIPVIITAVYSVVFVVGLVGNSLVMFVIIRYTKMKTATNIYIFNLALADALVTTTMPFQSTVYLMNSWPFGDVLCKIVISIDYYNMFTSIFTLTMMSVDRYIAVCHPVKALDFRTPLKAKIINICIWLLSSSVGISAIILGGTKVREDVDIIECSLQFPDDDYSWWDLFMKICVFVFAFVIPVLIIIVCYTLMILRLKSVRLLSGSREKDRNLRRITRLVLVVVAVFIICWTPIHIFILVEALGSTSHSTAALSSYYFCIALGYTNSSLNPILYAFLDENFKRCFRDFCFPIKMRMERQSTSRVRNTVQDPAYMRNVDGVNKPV
UniProt P41143, whole entry: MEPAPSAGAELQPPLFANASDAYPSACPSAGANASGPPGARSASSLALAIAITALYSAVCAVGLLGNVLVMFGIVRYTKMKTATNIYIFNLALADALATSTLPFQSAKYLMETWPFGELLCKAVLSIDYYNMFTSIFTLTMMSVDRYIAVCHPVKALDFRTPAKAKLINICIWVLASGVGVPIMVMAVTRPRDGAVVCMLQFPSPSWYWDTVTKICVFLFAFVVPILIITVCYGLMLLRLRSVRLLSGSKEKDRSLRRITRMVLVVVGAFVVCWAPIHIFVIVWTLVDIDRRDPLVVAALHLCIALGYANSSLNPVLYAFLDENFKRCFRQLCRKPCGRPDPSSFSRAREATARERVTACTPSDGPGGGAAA

Assay [1] deals with T1, Nociceptin receptor (Homo sapiens, UniProt P41146). The assay is described as follows: Displacement of [3H]nociceptin from human NOP receptor expressed in CHO cells. For orientation: Loss of bound radioactivity is the signal in a displacement assay; it reports binding, not function.
The target of the next assay is Mu-type opioid receptor (Homo sapiens, UniProt P35372). Nature of the assay: Displacement of [3H]diprenorphine from human MOP receptor expressed in CHOK1 cells. To be noted: cho-k1.
The target in assay [2] is T1, Nociceptin receptor. Nature of the assay: Agonist activity at human NOP receptor expressed in CHO cells assessed as inhibition of forskolin-stimulated cAMP production after 2 hrs. On the technique in general: Cyclic AMP is a second messenger, typically raised through Gs and lowered through Gi signalling.
Assay [3] has as its target Kappa-type opioid receptor (Cavia porcellus, UniProt P41144). Nature of the assay: Displacement of [3H]U69593 from KOP receptor in guinea pig cortical tissue.
The test system of the next assay is Mus musculus. The assay is described as follows: Antinociceptive effect in intravenously dosed ICR mouse assessed as reduction in formalin-induced licking activity after 0 to 5 mins.
For assay [4], the target named is Delta-type opioid receptor (Homo sapiens, UniProt P41143). Nature of the assay: Displacement of [3H]naltrindole from human delta opioid receptor expressed in deltaC6 cells. To be noted: c6.

The Ki is the dissociation constant of the complex between target and ligand, obtained from inhibition or displacement. At Nociceptin receptor [1], `CNC(=O)Cn1c(=O)n(C2CCN(C3CCCC3)CC2)c2ccccc21` showed a Ki of 470 nM.

In turn, `CNC(=O)Cn1c(=O)n(C2CCN(CCC(C)C)CC2)c2ccccc21` returned an inhibitory constant (Ki) on Nociceptin receptor [1] of 1120 nM.

For `CNC(=O)Cn1c(=O)n(C2CCN(C3CCCCCCCCC3)CC2)c2ccccc21`, the Ki was 0.2 nM on Nociceptin receptor [1] and 11 nM at Mu-type opioid receptor.

As usually defined, the IC50 is the concentration that inhibits the measured activity by half. For `CNC(=O)CN1Cc2ccccc2N(C2CCN(C3CCCCCCCCC3)CC2)S1(=O)=O`, at Nociceptin receptor [2], the concentration for half-maximal inhibition (IC50) turned out to be 5.2 nM. For the same molecule, the inhibition constant Ki came out at 0.6 nM at Nociceptin receptor [1] and 2.2 nM on Mu-type opioid receptor.

One may read the ED50 as the dose that gives a 50% effect, or the effect in half of the subjects. With `CNC(=O)Cn1c(=O)n(C2CCN([C@H]3CC[C@@H](C(C)C)CC3)CC2)c2ccccc21`, the values for the Ki in assay [3] and in assay [4] were 2700 nM and 7000 nM, respectively. Further, the ED50 in the assay with Mus musculus came out at 0.23 µmol/kg.

On to `CNC(=O)Cn1c(=O)n(C2CCN(Cc3ccc4ccccc4c3)CC2)c2ccccc21`, for which, on Nociceptin receptor [1], the affinity corresponds to a Ki of 454 nM. This lies in the sub-micromolar range.

Take `CNC(=O)Cn1c(=O)n(C2CCN(Cc3ccccc3-c3ccccc3)CC2)c2ccccc21`: the inhibition constant Ki on Nociceptin receptor [1] turned out to be 16 nM; on Mu-type opioid receptor, 3.7 nM.

As to `CNC(=O)Cn1c(=O)n(C2CCN(C3CC4CCC3C4)CC2)c2ccccc21` (configuration not stated), the inhibition constant (Ki) at Nociceptin receptor [1] stood at 487 nM.

On Nociceptin receptor [1], `CNC(=O)Cn1c(=O)n(C2CCN(CC3CCC3)CC2)c2ccccc21` showed a Ki of 2560 nM.

Take `CNC(=O)Cn1c(=O)n(C2CCN(C3CCCCC3)CC2)c2ccccc21`: the affinity at Nociceptin receptor [1] corresponds to a Ki of 227 nM.

`CNC(=O)Cn1c(=O)n(C2CCN(C3CCC(c4ccccc4)CC3)CC2)c2ccccc21` (configuration not stated): the affinity at Nociceptin receptor [1] corresponds to a Ki of 253 nM.

Take `CNC(=O)Cn1c(=O)n(C2CCN(Cc3nccc4ccccc34)CC2)c2ccccc21`: on Nociceptin receptor [1], the Ki was 1050 nM.

At Nociceptin receptor [1], `CNC(=O)Cn1c(=O)n(C2CCN(Cc3ccc4ccccc4n3)CC2)c2ccccc21` registered an inhibition constant (Ki) of 4080 nM.

As for `CNC(=O)Cn1c(=O)n(C2CCN(CCCC(C)C)CC2)c2ccccc21`, on Nociceptin receptor [1], the inhibition constant (Ki) came to 471 nM.

In the case of `CNC(=O)CN1Cc2ccccc2N(C2CCN(C3CCC(C(C)C)CC3)CC2)C1=O` (configuration not stated), the inhibition constant Ki at Nociceptin receptor [1] and at Mu-type opioid receptor was 21 nM in each case.
